This note sets out measurements from PubChem BioAssay AID1671190 (National Center for Advancing Translational Sciences (NCATS), 2021).

Chains of the proteins cited; added tags and fusions are not shown.
UniProt P18054, whole entry: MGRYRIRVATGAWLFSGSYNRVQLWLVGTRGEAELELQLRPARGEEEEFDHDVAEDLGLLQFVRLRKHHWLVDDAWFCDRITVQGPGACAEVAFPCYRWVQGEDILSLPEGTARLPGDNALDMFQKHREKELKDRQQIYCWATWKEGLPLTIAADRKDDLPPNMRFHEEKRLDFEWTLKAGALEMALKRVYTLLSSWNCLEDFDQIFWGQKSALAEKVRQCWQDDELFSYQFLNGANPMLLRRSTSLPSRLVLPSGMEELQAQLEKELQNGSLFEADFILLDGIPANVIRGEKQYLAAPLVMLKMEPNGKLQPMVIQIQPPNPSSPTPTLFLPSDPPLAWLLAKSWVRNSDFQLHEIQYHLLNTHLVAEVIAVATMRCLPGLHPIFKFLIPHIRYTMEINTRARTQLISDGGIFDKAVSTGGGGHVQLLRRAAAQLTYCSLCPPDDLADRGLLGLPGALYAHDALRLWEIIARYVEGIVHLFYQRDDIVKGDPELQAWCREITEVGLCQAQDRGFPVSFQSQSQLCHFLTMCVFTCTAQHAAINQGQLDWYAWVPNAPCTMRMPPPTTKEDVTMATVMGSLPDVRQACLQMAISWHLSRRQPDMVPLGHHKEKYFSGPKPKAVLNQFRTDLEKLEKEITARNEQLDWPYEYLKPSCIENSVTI

SMILES strings stand for the structures. The entries are a selection whose mix differs from that of the whole data set. Inconclusive results are not listed. The source made the active and inactive calls. The call rests on the fitted dose curve; in most records, active means well fitted inhibition curve with a large enough effect; inconclusive means small, poorly fitted or top-dose-only effect, or another doubt; inactive means no such curve, though single readings can be large or run the other way.
On the % scale 0 is the no-effect control and ±100 the full control effect.

For this experiment, the target named is Polyunsaturated fatty acid lipoxygenase ALOX12 (Homo sapiens) (UniProt P18054). In words: Primary qHTS assay for inhibitors of human arachidonate 12S-lipoxygenase (ALOX12): Round 2. As to conditions: purified 12hLO, xylenol orange hydroperoxide absorbance; at 108 µM (top of the series). The text has this: Assay Provider: Theodore R. Holman Ph.D. University of California, Santa Cruz, California Human lipoxygenase 12hLO is a member of the closely related lipoxygenase family of enzymes which catalyze the site-specific oxidation of arachidonic acid to various hormone precursor molecules and as such is a candidate for drug development in a variety of disease areas, such as cancer and inflammation. Inhibition of 12hLO activity was screened by utilizing arachidonic acid as a substrate. The extent of hydroperoxide product formation was measured by a secondary chromogenic reaction in which xylenol orange (XO, Sigma-Aldrich, cat. number 39,818-7) reacts with the ferric ions produced from the reaction between the hydroperoxide and ferrous ions. The Fe (III)-XO complex is characterized with red-shifted absorbance at 560 nm. […]
PROTOCOL TABLE SEQUENCE No. (e.g., 1, 2, 3, etc.); […] […] 7; Incubation; 30 min; room temperature 8; Detector; absorbance; Read 1 at 405 nm absorbance using ViewLux (Perkin-Elmer) CCD imager. 9; Detector; absorbance; Read 2 at 573 nm absorbance using ViewLux (Perkin-Elmer) CCD imager. […] 8, 9; Two absorbance readouts were obtained at 405 nm and at 573 nm using a ViewLux high-throughput CCD plate imager (Perkin-Elmer). The 573 to 405 (Read 2 / Read 1) absorbance ratio was used to compute reaction progress.
A general note: qHTS replaces the single test concentration by a dilution series.
Take `O=[As](O)(c1cccc(O)c1)c1cccc(O)c1`: the activity change, negative = inhibition is inactive: 4.86%.
